Measured values: patent publication US11116740B2, “Methods for use in support of planned supplement and food ingredient products for diagnosis and treatment of metabolic syndrome” (priority 2015, dated 2021)

Settings: in vivo
Procedure: This study examined global metabolic profiles in six dolphins (“Group A dolphins”). The dolphins lived in netted enclosures within San Diego Bay. The dolphins started on a 100% capelin diet. Group A dolphins were fed one-third of their daily diet in the morning after their routine overnight fast and 2h postprandial, in-water, and trained blood samples were drawn (typically near 10:00 a.m.). An additional four dolphins (“Group C dolphins”) were fed the capelin diet.
Two hour post-prandial samples were collected from the dolphins at baseline (week 0) and at four time points following the switch to the modified diet: 6, 12, 18, and 24 weeks. Routine monthly samples collected from four reference dolphins that were housed in the same environment as the Group A dolphins were assessed for glucose, triglycerides, ferritin, and percent serum fatty acids.
Sample Preparation: Samples were prepared using the automated MicroLab STAR® system from Hamilton Company. Several recovery standards were added prior to the first step in the extraction process for QC purposes. Proteins were precipitated with methanol under vigorous shaking for 2 min (Glen Mills GenoGrinder 2000) followed by centrifugation. The resulting extract was divided into five fractions: two for analysis by two separate reverse phase (RP)/UPLC-MS/MS methods with positive ion mode electrospray ionization (ESI), one for analysis by RP/UPLC-MS/MS with negative ion mode ESI, one for analysis by HILIC/UPLC-MS/MS with negative ion mode ESI, and one sample was reserved. Samples were placed briefly on a TurboVap® (Zymark) to remove the organic solvent. The sample extracts were stored overnight under nitrogen before preparation for analysis.
Ultrahigh Performance Liquid Chromatography-Tandem Mass Spectroscopy (UPLC-MS/[…]): Each of four methods utilized a Waters ACQUITY ultra-performance liquid chromatography (UPLC) and a Thermo Scientific Q-Exactive high resolution/accurate mass spectrometer interfaced with a heated electrospray ionization (HESI-II) source and Orbitrap mass analyzer operated at 35,000 mass resolution. A sample extract was dried, then reconstituted in solvents compatible to each of the four methods. Each reconstitution solvent contained a series of standards at fixed concentrations to ensure injection and chromatographic consistency. A first aliquot was analyzed using acidic positive ion conditions, chromatographically optimized for more hydrophilic compounds. In this method, the extract was gradient eluted from a C18 column (Waters UPLC BEH C18-2. 1×100 mm, 1.7 μm) using water and methanol, containing 0.05% perfluoropentanoic acid (PFPA) and 0.1% formic acid (FA). A second aliquot was also analyzed using acidic positive ion conditions, however it was chromatographically optimized for more hydrophobic compounds. In this method, the extract was gradient eluted from the same afore mentioned C18 column using methanol, acetonitrile, water, 0.05% PFPA and 0.01% FA and was operated at an overall higher organic content. A third aliquot was analyzed using basic negative ion optimized conditions using a separate dedicated C 18 column. The basic extracts were gradient eluted from the column using methanol and water, however with 6.5 mM Ammonium Bicarbonate at pH 8. […] The MS analysis alternated between MS and data-dependent MSn scans using dynamic exclusion. The scan range varied slighted between methods but covered 70-1000 m/z.
Data Extraction and Compound Identification: Raw data was extracted, peak-identified and QC processed using Metabolon's hardware and software. The systems were based on a web-service platform utilizing Microsoft's .NET technologies, which ran on high-performance application servers and fiber-channel storage arrays in clusters to provide active failover and load-balancing. Compounds were identified by comparison to library entries of purified standards or recurrent unknown entities.

serum concentration 18 wk / 0 wk	serum concentration 6 wk / 0 wk	serum concentration 12 wk / 0 wk	serum concentration 24 wk / 0 wk	Molecule
1.03	–	–	–	CCCCC/C=C\C/C=C\CCCCCCCCCC(=O)O [dihomo-linoleate (20:2n6), dihomo-linoleate]
–	1.03	–	–	CC/C=C\C/C=C\C/C=C\C/C=C\CCCCC(=O)O [stearidonate (18:4n3), stearidonate]
1.36	1.14	1.37	1.03	dihomo-linolenate [dihomo-linolenate (20:3n3 or n6)]
